Measured values published in patent US8053603B2, “Tetralone-based monoamine reuptake inhibitors” (Sunovion Pharmaceuticals Inc., priority 2006, dated 2011).

Amino acid sequences for entries named in this document (tags omitted).
UniProt P23975, whole entry: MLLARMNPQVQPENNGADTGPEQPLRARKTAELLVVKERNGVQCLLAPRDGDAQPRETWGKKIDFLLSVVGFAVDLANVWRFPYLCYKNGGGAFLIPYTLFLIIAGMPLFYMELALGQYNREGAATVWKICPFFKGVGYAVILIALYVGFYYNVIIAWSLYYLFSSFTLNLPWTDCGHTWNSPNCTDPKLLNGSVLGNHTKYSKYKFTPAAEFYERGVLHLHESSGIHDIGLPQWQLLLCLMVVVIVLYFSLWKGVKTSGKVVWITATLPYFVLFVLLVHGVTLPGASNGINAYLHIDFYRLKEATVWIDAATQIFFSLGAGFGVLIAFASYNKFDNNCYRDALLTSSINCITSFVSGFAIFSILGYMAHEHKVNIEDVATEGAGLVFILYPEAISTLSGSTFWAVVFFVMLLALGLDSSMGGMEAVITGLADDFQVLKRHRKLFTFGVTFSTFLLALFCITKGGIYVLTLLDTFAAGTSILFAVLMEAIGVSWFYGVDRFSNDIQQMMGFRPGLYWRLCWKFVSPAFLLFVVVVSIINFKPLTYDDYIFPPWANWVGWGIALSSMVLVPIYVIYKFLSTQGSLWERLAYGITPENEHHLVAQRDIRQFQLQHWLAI
UniProt P31645, whole entry: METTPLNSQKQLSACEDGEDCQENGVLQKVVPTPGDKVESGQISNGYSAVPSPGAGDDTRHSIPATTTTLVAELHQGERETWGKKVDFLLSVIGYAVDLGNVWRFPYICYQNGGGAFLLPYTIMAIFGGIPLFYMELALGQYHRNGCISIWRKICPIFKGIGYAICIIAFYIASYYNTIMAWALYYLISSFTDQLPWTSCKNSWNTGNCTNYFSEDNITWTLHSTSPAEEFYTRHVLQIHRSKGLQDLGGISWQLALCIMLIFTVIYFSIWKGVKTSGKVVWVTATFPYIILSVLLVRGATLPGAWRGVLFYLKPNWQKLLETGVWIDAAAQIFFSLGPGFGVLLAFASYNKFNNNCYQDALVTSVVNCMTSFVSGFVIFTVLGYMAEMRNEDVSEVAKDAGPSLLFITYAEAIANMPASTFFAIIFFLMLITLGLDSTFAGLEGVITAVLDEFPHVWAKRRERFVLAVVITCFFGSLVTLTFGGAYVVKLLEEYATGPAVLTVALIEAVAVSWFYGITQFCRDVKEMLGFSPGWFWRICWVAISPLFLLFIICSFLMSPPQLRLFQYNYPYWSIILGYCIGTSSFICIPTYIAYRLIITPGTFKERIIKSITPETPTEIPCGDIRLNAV

Assays:
[1] = target: T1, recombinant human norepinephrine transporter (Homo sapiens, UniProt P23975); test: Norepinephrine functional uptake assay for human reuptake transporter; assay type: cell-based; details: [3H]norepinephrine uptake, HEK293 or MDCK cells expressing human norepinephrine transporter; read-out: Human IC50 (nM) NET
T1 construct: expressed in transfected cells; host or cells: HEK293 or MDCK

[2] = target: T2, recombinant human serotonin transporter (Homo sapiens, UniProt P31645); test: Serotonin functional uptake assay for human reuptake transporter; assay type: cell-based; details: read-out: Human IC50 (nM) SERT
T2 construct: expressed in transfected cells; host or cells: HEK-293

[3] = [3H]serotonin uptake, HEK-293 cells expressing human serotonin transporter

IC50 [1]: 26 nM
SMILES: NCCC1Cc2ccccc2C(c2ccc(Cl)c(Cl)c2)C1 (single isomer, unassigned) [Compound 25a, 2-(1,3-cis)-1-(3,4-dichlorophenyl)-(1,2,3,4-tetrahydronaphthalen-3-yl)ethanamine]

IC50 [1]: 158 nM
SMILES: NCCC1Cc2ccccc2C(c2ccc(Cl)c(Cl)c2)C1 (single isomer, unassigned) [Compound 25b, 2-(1,3-cis)-1-(3,4-dichlorophenyl)-(1,2,3,4-tetrahydronaphthalen-3-yl)ethanamine]

SMILES: N[C@H]1Cc2ccccc2[C@H](c2ccc(Cl)c(Cl)c2)C1 [Compound 6a, [4-(3,4-dichlorophenyl)-1,2,3,4-tetrahydro-naphthalen-2-yl]-amine]
IC50 [2]: 46 nM

SMILES: CN[C@H]1Cc2ccccc2[C@H](c2ccc(Cl)c(Cl)c2)C1 [Compound 7a, 4-(3,4-dichlorophenyl)-N-methyl-1,2,3,4-tetrahydronaphthalen-2-amine]
IC50 [2, 3]: 6 nM

SMILES: CN(C)[C@H]1Cc2ccccc2[C@H](c2ccc(Cl)c(Cl)c2)C1 [Compound 8a, [4-(3,4-dichlorophenyl)-1,2,3,4-tetrahydro-naphthalen-2-yl]-dimethylamine]
IC50 [2]: 7 nM

SMILES: NC[C@@H]1Cc2ccccc2[C@H](c2ccc(Cl)c(Cl)c2)C1 [Compound 14a, (4-(3,4-dichlorophenyl)-1,2,3,4-tetrahydronaphthalen-2-yl)methanamine]
IC50 [2, 3]: 2 nM

SMILES: CNC[C@H]1Cc2ccccc2[C@H](c2ccc(Cl)c(Cl)c2)C1 [Compound 15a, [4-(3,4-dichlorophenyl)-1,2,3,4-tetrahydro-naphthalen-2-ylmethyl]-methylamine]
IC50 [2, 3]: 9 nM

Like-named read-outs stand apart in the source and are kept apart here. Each block holds one compound with its values, some of them ahead of it.
